Laboratory results from the NIST ThermoML archive (doi:10.1016/j.jct.2007.09.007).

Assay: xn = mol fraction of the nth substance listed
Conditions: 100 kPa, Liquid

CCCCOCCCC [dibutyl ether] + CC#N
mass density [kg/m3]
Conditions	288.15 K	293.15 K	298.15 K	303.15 K
x1 = 0.02	786.5	781.19	775.84	770.48
x1 = 0.0339	785.97	780.66	775.34	770.01
x1 = 0.0514	785.31	780.03	774.76	769.46
x1 = 0.096	783.78	778.6	773.41	768.2
x1 = 0.1542	782.12	777.03	771.94	766.82
x1 = 0.1891	781.24	776.24	771.18	766.12
x1 = 0.2048	780.89	775.91	770.88	765.83
x1 = 0.2371	780.21	775.27	770.29	765.28
x1 = 0.2433	780.08	775.16	770.18	765.18
x1 = 0.254	779.88	774.97	770	765.01
x1 = 0.2763	779.47	774.58	769.65	764.68
x1 = 0.3218	778.71	773.86	768.99	764.07
x1 = 0.3456	778.33	773.51	768.67	763.78
x1 = 0.3553	778.18	773.39	768.55	763.68
x1 = 0.4008	777.55	772.8	768.01	763.2
x1 = 0.4461	777.02	772.3	767.57	762.79
x1 = 0.4902	776.53	771.85	767.15	762.42
x1 = 0.5653	775.78	771.18	766.56	761.87
x1 = 0.5808	775.64	771.05	766.44	761.78
x1 = 0.6292	775.21	770.68	766.11	761.48
x1 = 0.6996	774.64	770.17	765.64	761.1
x1 = 0.7545	774.22	769.79	765.3	760.8
x1 = 0.8041	773.84	769.45	765	760.54
x1 = 0.8421	773.56	769.21	764.78	760.34
x1 = 0.8638	773.4	769.06	764.65	760.23
x1 = 0.9076	773.09	768.76	764.38	759.98
x1 = 0.95	772.82	768.49	764.12	759.75
x1 = 0.9777	772.59	768.29	763.95	759.6
x1 = 0.9902	772.49	768.2	763.86	759.52
